Test results taken from patent US10280139B2, “Cytotoxic peptides and conjugates thereof” (priority 2014, dated 2019).
Entries after “also recorded” stand apart in the source; their conditions may differ.

Assay: ADC pharmacokinetic study in non-tumor bearing mice (anti-hIgG and anti-MMAF ELISA)
[1] = single dose 1 mg/kg, plasma over three weeks

Structure (SMILES)	Payload/linker stability in circulation (anti-MMAF versus anti-hIgG assay, words) [1]	further results
CC[C@H](C)[C@@H]([C@@H](CC(=O)N1CCC[C@H]1[C@H](OC)[C@@H](C)C(=O)N[C@H](Cc1ccccc1)C(=O)Nc1ccc(CNC(=O)CCCCCN2C(=O)C=CC2=O)cc1)OC)N(C)C(=O)[C@@H](N=C(N(C)C)N(C)C)C(C)C [CL-1, N-(4-((R)-2-((2R,3R)-3-((S)-1-((3R,4S,5S)-4-((S)-2-((bis(dimethylamino)methylene)amino)-N,3-dimethylbutanamido)-3-methoxy-5-methylheptanoyl)pyrrolidin-2-yl)-3-methoxy-2-methylpropanamido)-3-phenylpropanamido)benzyl)-6-(2,5-dioxo-2,5-dihydro-1H-pyrrol-1-yl)hexanamide]	found to be cleaved in circulation in mice	
CC[C@H](C)[C@@H]([C@@H](CC(=O)N1CCC[C@H]1[C@H](OC)[C@@H](C)C(=O)N[C@@H](Cc1ccccc1)C(=O)N(C)c1ccc(CNC(=O)CCCCCN2C(=O)C=CC2=O)cc1)OC)N(C)C(=O)[C@@H](N=C(N(C)C)N(C)C)C(C)C [CL-6, N-(4-((S)-2-((2R,3R)-3-((S)-1-((3R,4S,5S)-4-((S)-2-((bis(dimethylamino)methylene)amino)-N,3-dimethylbutanamido)-3-methoxy-5-methylheptanoyl)pyrrolidin-2-yl)-3-methoxy-2-methylpropanamido)-N-methyl-3-phenylpropanamido)benzyl)-6-(2,5-dioxo-2,5-dihydro-1H-pyrrol-1-yl)hexanamide]		Clearance / PK profile versus unconjugated antibody [1]: caused ADC to be cleared more rapidly than the unconjugated antibody from circulation
CC[C@H](C)C([C@@H](CC(=O)N1CCC[C@H]1[C@H](OC)[C@@H](C)C(=O)N[C@@H](Cc1ccccc1)C(=O)NS(=O)(=O)CCCn1cc(CN2C(=O)C=CC2=O)nn1)OC)N(C)C(=O)[C@@H](N=C(N(C)C)N(C)C)C(C)C (stereo partly drawn) [CL-9, (S)-2-((Bis(dimethylamino)methylene)amino)-1-(((3R,4S,5S)-1-((S)-2-((1R,2R)-3-(((S)-N-1-(3-(4-((2,5-dioxo-2,5-dihydro-1H-pyrrol-1-yl)methyl)-1H-1,2,3-triazol-1-yl)propylsulfonamido)-1-oxo-3-phenylpropan-2-yl)amino)-1-methoxy-2-methyl-3-oxopropyl)pyrrolidin-1-yl)-3-methoxy-5-methyl-1-oxoheptan-4-yl)(methyl)amino)-3-methyl-1-oxobutane]		Payload/linker stability in circulation (anti-MMAF versus anti-hIgG assay, words) (single dose 1 mg/kg, plasma over three weeks, 1 mg/kg): no cleavage; also recorded: stable in circulation in mice
CC[C@H](C)[C@@H]([C@@H](CC(=O)N1CCC[C@H]1[C@H](OC)[C@@H](C)C(=O)N[C@@H](Cc1ccccc1)C(=O)NCCOCCOCCNC(=O)CCN1C(=O)C=CC1=O)OC)N(C)C(=O)[C@@H](N=C(N(C)C)N(C)C)C(C)C [CL-10, (S)-N-((3R,4S,5S)-1-((S)-2-((3R,4R,7S)-7-benzyl-21-(2,5-dioxo-2,5-dihydro-1H-pyrrol-1-yl)-4-methyl-5,8,19-trioxo-2,12,15-trioxa-6,9,18-triazahenicosan-3-yl)pyrrolidin-1-yl)-3-methoxy-5-methyl-1-oxoheptan-4-yl)-2-((bis(dimethylamino)methylene)amino)-N,3-dimethylbutanamide]	stable in circulation in mice	
CC[C@H](C)[C@@H]([C@@H](CC(=O)N1CCC[C@H]1[C@H](OC)[C@@H](C)C(=O)N[C@@H](Cc1ccccc1)C(=O)N[C@@H](C)COC(=O)NCCOCCN1C(=O)C=CC1=O)OC)N(C)C(=O)[C@@H](N=C(N(C)C)N(C)C)C(C)C [CL-11, (S)-2-((S)-2-((2R,3R)-3-((S)-1-((3R,4S,5S)-4-((S)-2-((bis(dimethylamino)methylene)amino)-N,3-dimethylbutanamido)-3-methoxy-5-methylheptanoyl)pyrrolidin-2-yl)-3-methoxy-2-methylpropanamido)-3-phenylpropanamido)propyl (2-(2-(2,5-dioxo-2,5-dihydro-1H-pyrrol-1-yl)ethoxy)ethyl)carbamate]	stable in circulation in mice	
CC[C@H](C)[C@@H]([C@@H](CC(=O)N1CCC[C@H]1[C@H](OC)[C@@H](C)C(=O)N[C@@H](Cc1ccccc1)C(=O)NCCOCCN1C(=O)C=CC1=O)OC)N(C)C(=O)[C@@H](N=C(N(C)C)N(C)C)C(C)C [CL-12, (S)-N-((3R,4S,5S)-1-((S)-2-((3R,4R,7S)-7-Benzyl-14-(2,5-dioxo-2,5-dihydro-1H-pyrrol-1-yl)-4-methyl-5,8-dioxo-2,12-dioxa-6,9-diazatetradecan-3-yl)pyrrolidin-1-yl)-3-methoxy-5-methyl-1-oxoheptan-4-yl)-2-((bis(dimethylamino)methylene)amino)-N,3-dimethylbutanamide]	stable in circulation in mice	
CC[C@H](C)[C@@H]([C@@H](CC(=O)N1CCC[C@H]1[C@H](OC)[C@@H](C)C(=O)N[C@@H](Cc1ccccc1)C(=O)NS(=O)(=O)CCCn1cc(CON)nn1)OC)N(C)C(=O)[C@@H](N=C(N(C)C)N(C)C)C(C)C [CL-22, (S)-2-((Bis(dimethylamino)methylene)amino)-1-(((3R,4S,5S)-1-((S)-2-((1R,2R)-3-(((S)-N-1-(3-(4-(aminoxymethyl)-1H-1,2,3-triazol-1-yl)propylsulfonamido)-1-oxo-3-phenylpropan-2-yl)amino)-1-methoxy-2-methyl-3-oxopropyl)pyrrolidin-1-yl)-3-methoxy-5-methyl-1-oxoheptan-4-yl)(methyl)amino)-3-methyl-1-oxobutane]	found to be cleaved in circulation in mice	MS analysis of linker cleavage of ADC from mice plasma (after administration): cleaved at the sulfonamide and oxime linker groups
CC[C@H](C)[C@@H]([C@@H](CC(=O)N1CCC[C@H]1[C@H](OC)[C@@H](C)C(=O)N[C@@H](Cc1ccccc1)C(=O)NS(=O)(=O)CCCNC(=O)CCCC(=O)ON1C(=O)CCC1=O)OC)N(C)C(=O)[C@@H](N=C(N(C)C)N(C)C)C(C)C [CL-32, N-hydroxysuccinimide (NHS) ester of (S)-2-((bis(dimethylamino)methylene)amino)-1-(((3R,4S,5S)-1-((S)-2-((1R,2R)-3-(((S)-N-1-(3-(4-carboxybutoyl)aminopropylsulfonamido)-1-oxo-3-phenylpropan-2-yl)amino)-1-methoxy-2-methyl-3-oxopropyl)pyrrolidin-1-yl)-3-methoxy-5-methyl-1-oxoheptan-4-yl)(methyl)amino)-3-methyl-1-oxobutane]	stable in circulation in mice	
CC[C@H](C)[C@@H]([C@@H](CC(=O)N1CCC[C@H]1[C@H](OC)[C@@H](C)C(=O)N[C@@H](Cc1ccccc1)C(=O)O)OC)N(C)C(=O)[C@@H](/N=C(\N(C)C)N1CCN(C(=O)CCCCCN2C(=O)C=CC2=O)CC1)C(C)C [NL-4, (S)-2-((2R,3R)-3-((S)-1-((3R,4S,5S)-4-((S)-2-((E)-((dimethylamino)(4-(6-(2,5-dioxo-2,5-dihydro-1H-pyrrol-1-yl)hexanoyl)piperazin-1-yl)methylene)amino)-N,3-dimethylbutanamido)-3-methoxy-5-methylheptanoyl)pyrrolidin-2-yl)-3-methoxy-2-methylpropanamido)-3-phenylpropanoic acid]	stable in circulation in mice	
CC[C@H](C)[C@@H]([C@@H](CC(=O)N1CCC[C@H]1[C@H](OC)[C@@H](C)C(=O)N[C@@H](Cc1ccccc1)C(=O)O)OC)N(C)C(=O)[C@@H](Nc1nc(C)cc(C(=O)NCCNC(=O)CCCCCN2C(=O)C=CC2=O)n1)C(C)C [NL-38, (S)-2-((2R,3R)-3-((S)-1-((3R,4S,5S)-4-((S)-2-((4-((2-(6-(2,5-dioxo-2,5-dihydro-1H-pyrrol-1-yl)hexanamido)ethyl)carbamoyl)-6-methylpyrimidin-2-yl)amino)-N,3-dimethylbutanamido)-3-methoxy-5-methylheptanoyl)pyrrolidin-2-yl)-3-methoxy-2-methylpropanamido)-3-phenylpropanoic acid]	stable in circulation in mice	
